Chains of the proteins cited; added tags and fusions are not shown. Residues count along the entry.
UniProt P08069, 31-1367: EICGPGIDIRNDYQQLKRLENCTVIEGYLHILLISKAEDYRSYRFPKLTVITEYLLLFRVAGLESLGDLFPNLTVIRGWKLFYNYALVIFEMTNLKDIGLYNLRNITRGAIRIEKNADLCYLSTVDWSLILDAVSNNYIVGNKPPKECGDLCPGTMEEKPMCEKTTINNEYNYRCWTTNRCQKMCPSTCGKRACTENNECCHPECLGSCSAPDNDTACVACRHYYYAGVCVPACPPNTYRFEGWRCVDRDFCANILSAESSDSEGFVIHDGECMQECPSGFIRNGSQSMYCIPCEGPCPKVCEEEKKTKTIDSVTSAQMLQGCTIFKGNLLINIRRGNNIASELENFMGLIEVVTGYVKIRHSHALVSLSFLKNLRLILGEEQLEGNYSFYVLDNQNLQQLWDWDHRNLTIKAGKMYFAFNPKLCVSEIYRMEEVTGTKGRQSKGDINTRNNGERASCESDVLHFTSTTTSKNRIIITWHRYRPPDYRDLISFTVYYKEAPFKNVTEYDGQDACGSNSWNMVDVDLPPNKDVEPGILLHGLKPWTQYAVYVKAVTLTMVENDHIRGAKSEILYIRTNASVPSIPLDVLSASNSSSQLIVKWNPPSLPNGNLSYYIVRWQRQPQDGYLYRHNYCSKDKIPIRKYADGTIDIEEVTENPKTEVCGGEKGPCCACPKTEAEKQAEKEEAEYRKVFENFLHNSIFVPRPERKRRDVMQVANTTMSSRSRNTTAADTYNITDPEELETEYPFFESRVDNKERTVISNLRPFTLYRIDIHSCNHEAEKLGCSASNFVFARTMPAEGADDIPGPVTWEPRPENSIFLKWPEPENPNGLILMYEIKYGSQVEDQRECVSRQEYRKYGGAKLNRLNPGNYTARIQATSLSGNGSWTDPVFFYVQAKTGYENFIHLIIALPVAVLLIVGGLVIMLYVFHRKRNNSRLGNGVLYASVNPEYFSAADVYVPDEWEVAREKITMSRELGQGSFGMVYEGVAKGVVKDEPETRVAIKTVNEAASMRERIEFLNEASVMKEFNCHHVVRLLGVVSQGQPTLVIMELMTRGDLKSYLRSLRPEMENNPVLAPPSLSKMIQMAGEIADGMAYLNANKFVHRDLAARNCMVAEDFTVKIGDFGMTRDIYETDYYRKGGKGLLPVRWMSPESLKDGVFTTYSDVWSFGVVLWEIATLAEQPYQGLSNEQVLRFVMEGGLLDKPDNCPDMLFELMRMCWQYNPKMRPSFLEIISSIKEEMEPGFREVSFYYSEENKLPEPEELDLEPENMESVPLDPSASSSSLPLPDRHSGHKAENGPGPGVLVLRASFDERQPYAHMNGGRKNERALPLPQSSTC

According to US8198438B2, “Pyrrolotriazine kinase inhibitors” (Bristol-Myers Squibb Company, priority 2007, dated 2012):

Target: IGF1-receptor (Homo sapiens, UniProt P08069)
Experiment: IGF1-Receptor Tyrosine Kinase Assay
Assay type: biochemical
Settings: ATP 25 μM; IGF1-Receptor 14 nM; Caliper LabChip 3000; read-out: IGF1R IC50
Description: D. IGF1-Receptor Tyrosine Kinase Assay
The assays were performed in U-bottom 384-well plates. The final assay volume was 30 μl prepared from 15 μl additions of enzyme and substrates (fluoresceinated IGF1R substrate peptide and ATP) and test compounds in assay buffer (100 mM HEPES pH 7.4, 10 mM MnCl2, 0.015% Brij35 and 4 mM DTT). The reaction was initiated by the combination of IGF1-receptor with substrates and test compounds. The reaction was incubated at room temperature for 60 min. and terminated by adding 30 μl of 35 mM EDTA to each sample. The reaction mixture was analyzed on the Caliper LabChip 3000 by electrophoretic separation of the fluorescent substrate and phosphorylated product. Inhibition data were calculated by comparison to no enzyme control reactions for 100% inhibition and vehicle-only reactions for 0% inhibition. The final concentration of reagents in the assays is ATP, 25 μM; FL-peptide, 1.5 μM; IGF1-Receptor, 14 nM; and DMSO, 1.6%. Dose response curves were generated to determine the concentration required inhibiting 50% of kinase activity (IC50). Compounds were dissolved at 10 mM in dimethylsulfoxide (DMSO) and evaluated at eleven concentrations, each in duplicate. IC50 values were derived by non-linear regression analysis

O=C(c1ccc(F)nc1)N1CCC[C@H]1c1nc(Nc2cc(C3CC3)[nH]n2)c2cccn2n1 [Example 1, (S)-(2-(4-(5-Cyclopropyl-1H-pyrazol-3-ylamino)pyrrolo[1,2-f][1,2,4]triazin-2-yl)pyrrolidin-1-yl)(6-fluoropyridin-3-yl)methanone] was tested, and the IC50 was 7 nM.
